Assay results as given in ChEMBL document CHEMBL1130107, “Discovery of CGS 27023A, a non-peptidic, potent, and orally active stromelysin inhibitor that blocks cartilage degradation in rabbits” (J Med Chem, 1997).

Protein sequences, listed by entry. Tags and fused reporters are not part of them. Lines headed by an entry give the natural chain unless they say otherwise; changes in a name come on top.
UniProt P08254: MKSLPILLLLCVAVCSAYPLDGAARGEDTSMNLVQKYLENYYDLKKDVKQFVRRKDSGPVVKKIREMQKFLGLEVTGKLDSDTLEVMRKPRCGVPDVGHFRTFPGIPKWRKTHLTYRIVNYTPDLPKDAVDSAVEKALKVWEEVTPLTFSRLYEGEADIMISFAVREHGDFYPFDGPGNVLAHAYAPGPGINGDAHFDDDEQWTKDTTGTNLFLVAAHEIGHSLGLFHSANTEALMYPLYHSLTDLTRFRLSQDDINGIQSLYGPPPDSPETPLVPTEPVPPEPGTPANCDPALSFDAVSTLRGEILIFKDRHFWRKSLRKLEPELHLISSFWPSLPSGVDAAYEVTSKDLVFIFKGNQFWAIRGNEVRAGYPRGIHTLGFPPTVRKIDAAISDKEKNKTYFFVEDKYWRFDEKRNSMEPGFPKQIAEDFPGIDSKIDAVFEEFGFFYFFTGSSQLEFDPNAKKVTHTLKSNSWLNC

How the values were obtained:
[1] = biological target: Stromelysin-1 (Homo sapiens, UniProt P08254); experiment: Inhibition activity against recombinant human stromelysin (Matrix metalloprotease-3)
[2] = biological target: T1, Interstitial collagenase (Homo sapiens, UniProt P03956); experiment: Inhibition of recombinant human collagenase, Matrix metalloprotease-1 (MMP-1)
T1 sequence (P03956 whole entry): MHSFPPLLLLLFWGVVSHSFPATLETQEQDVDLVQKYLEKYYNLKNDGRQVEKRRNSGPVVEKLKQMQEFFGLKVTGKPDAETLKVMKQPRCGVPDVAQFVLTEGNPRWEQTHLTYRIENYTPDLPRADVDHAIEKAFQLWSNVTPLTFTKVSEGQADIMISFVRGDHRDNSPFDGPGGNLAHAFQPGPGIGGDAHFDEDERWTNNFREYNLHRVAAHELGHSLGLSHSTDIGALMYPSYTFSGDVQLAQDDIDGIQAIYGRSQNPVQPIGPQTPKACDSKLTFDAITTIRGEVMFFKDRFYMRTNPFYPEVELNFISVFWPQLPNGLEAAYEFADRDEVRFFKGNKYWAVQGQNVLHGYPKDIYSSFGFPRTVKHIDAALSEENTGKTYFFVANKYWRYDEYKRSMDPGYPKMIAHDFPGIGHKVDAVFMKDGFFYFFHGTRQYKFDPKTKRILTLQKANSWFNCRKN

Ki [2] [nM]	Structure (SMILES)	Ki [1] [nM]
–	COc1ccc(S(=O)(=O)N(CC(=O)NO)CC(C)C)cc1	133
33	COc1ccc(S(=O)(=O)N(Cc2cccnc2)[C@@H](C(=O)NO)C(C)C)cc1 [CGS-27023A]	–
